Results on eight compounds are retold here after US6531446B1, “Peptides having biological activity” (Korea Advanced Institute of Science and Technology, priority 1998, dated 2003).

Each structure is given as a SMILES string.

Holding throughout (assay type): cell-based
The test system of one test is Bacillus subtilis. To be noted: 18 h. How it is done: (§1) By using the peptides as in Example 1, the minimal inhibitory concentration of the peptides were determined against a variety of microorganisms. Bacteria and fungi were incubated overnight in Mller-Hinton and Saboraud media, respectively, at 37 and 30° C., respectively, and were inoculated in media for 2 hours to a midlogarithmic phase. After diluting the bacteria and fungi to 10^4-10^5 per 1 ml, they were inoculated into a 96-well plate containing serially diluted peptides and incubated for additional 18 hours. The minimal inhibitory concentration was determined at a concentration that inhibits the growth of the microorganisms by measuring the absorbance.

In the next test the test system is Serratia sp. To be noted: 18 h. How it is done:
as §1

In the next test the test system is Cryptococcus neoformans. To be noted: 18 h. The procedure:
as §1

The next test relates to Saccharomyces cerevisiae. To be noted: 18 h. The procedure:
as §1

Another test concerns Streptococcus pneumoniae. To be noted: 18 h. How it is done:
as §1

Another test has as its system Staphylococcus aureus. To be noted: 18 h. How it is done:
as §1

Another test has as its system Escherichia coli. To be noted: 18 h. How it is done:
as §1

The subject of the next test is Salmonella typhimurium. To be noted: murium, 18 h. How it is done: as §1
A further test deals with Streptococcus mutans. To be noted: 18 h. The procedure:
as §1

The subject of a further test is Candida albicans. To be noted: 18 h. How it is done: as §1

For `CC(C)C[C@H](NC(=O)[C@H](CC(C)C)NC(=O)[C@H](CCCNC(=N)N)NC(=O)[C@H](Cc1c[nH]cn1)NC(=O)[C@@H](NC(=O)[C@H](CCCNC(=N)N)NC(=O)CNC(=O)[C@@H](NC(=O)[C@@H]1CCCN1C(=O)[C@H](Cc1ccccc1)NC(=O)[C@H](CCC(N)=O)NC(=O)[C@@H](N)CC(C)C)C(C)C)C(C)C)C(=O)N[C@@H](CCCNC(=N)N)C(=O)N[C@@H](CCCCN)C(=O)O` [Seq No. 4], the “Minimal Inhibitory Concentrations” value in the test with Bacillus subtilis amounted to 8 µg/mL; in the test with Serratia sp. it was 4 µg/mL; with Cryptococcus neoformans it was 62 µg/mL; in the test with Saccharomyces cerevisiae, 36 µg/mL; in the test with Streptococcus pneumoniae it was 18 µg/mL; with Staphylococcus aureus, 18 µg/mL. The “Minimal Inhibitory Concentrations” value with Escherichia coli came out at 8 µg/mL; in the test with Salmonella typhimurium, 18 µg/mL; in the test with Streptococcus mutans, 8 µg/mL; with Candida albicans, 36 µg/mL.

Take `CC(C)C[C@H](NC(=O)[C@H](CCCNC(=N)N)NC(=O)[C@H](Cc1c[nH]cn1)NC(=O)[C@@H](NC(=O)[C@H](CCCNC(=N)N)NC(=O)CNC(=O)[C@@H](NC(=O)[C@@H]1CCCN1C(=O)[C@H](Cc1ccccc1)NC(=O)[C@H](CCC(N)=O)NC(=O)[C@H](CC(C)C)NC(=O)CNC(=O)[C@H](C)NC(=O)[C@@H](N)CCCNC(=N)N)C(C)C)C(C)C)C(N)=O` [Seq No. 11]: the “Minimal Inhibitory Concentrations” value in the test on Bacillus subtilis was 100 µg/mL; with Serratia sp., 100 µg/mL; in the test with Cryptococcus neoformans it was 200 µg/mL; with Saccharomyces cerevisiae, over 200 µg/mL; with Streptococcus pneumoniae, 100 µg/mL; in the test with Staphylococcus aureus, 200 µg/mL. For the same compound, the “Minimal Inhibitory Concentrations” value is 200 µg/mL in the test with Escherichia coli, 200 µg/mL in the test with Salmonella typhimurium, 100 µg/mL with Streptococcus mutans and over 200 µg/mL in the test on Candida albicans.

In the case of `CC(C)C[C@H](NC(=O)CNC(=O)[C@H](C)NC(=O)[C@@H](N)CCCNC(=N)N)C(=O)N[C@@H](CCC(N)=O)C(=O)N[C@@H](Cc1ccccc1)C(=O)N1CCC[C@H]1C(=O)N[C@H](C(=O)NCC(=O)N[C@@H](CCCNC(=N)N)C(=O)N[C@H](C(=O)N[C@@H](Cc1c[nH]cn1)C(=O)N[C@@H](CCCNC(=N)N)C(=O)N[C@@H](CC(C)C)C(=O)N[C@@H](CC(C)C)C(=O)N[C@@H](CCCNC(=N)N)C(=O)O)C(C)C)C(C)C` [Seq No. 9], the “Minimal Inhibitory Concentrations” value is 12 µg/mL with Bacillus subtilis; 12 µg/mL with Serratia sp.; 50 µg/mL with Cryptococcus neoformans; 100 µg/mL in the test on Saccharomyces cerevisiae; 25 µg/mL in the test with Streptococcus pneumoniae; 50 µg/mL with Staphylococcus aureus. Further, the “Minimal Inhibitory Concentrations” value with Escherichia coli came to 12 µg/mL; in the test on Salmonella typhimurium, 25 µg/mL; in the test with Streptococcus mutans, 25 µg/mL; in the test on Candida albicans, 50 µg/mL.

For `CC(C)C[C@H](NC(=O)[C@H](CC(C)C)NC(=O)[C@H](CCCNC(=N)N)NC(=O)[C@H](Cc1c[nH]cn1)NC(=O)[C@@H](NC(=O)[C@H](CCCNC(=N)N)NC(=O)CNC(=O)[C@@H](NC(=O)[C@@H]1CCCN1C(=O)[C@H](Cc1ccccc1)NC(=O)[C@H](CCC(N)=O)NC(=O)[C@H](CC(C)C)NC(=O)CNC(=O)[C@H](C)NC(=O)[C@@H](N)CCCNC(=N)N)C(C)C)C(C)C)C(N)=O` [Seq No. 10], the “Minimal Inhibitory Concentrations” value with Bacillus subtilis was 50 µg/mL; in the test on Serratia sp., 25 µg/mL; in the test on Cryptococcus neoformans it was 100 µg/mL; with Saccharomyces cerevisiae, over 200 µg/mL; in the test with Streptococcus pneumoniae, 100 µg/mL; in the test on Staphylococcus aureus, 200 µg/mL. In addition, the “Minimal Inhibitory Concentrations” value is 50 µg/mL in the test on Escherichia coli, 50 µg/mL in the test with Salmonella typhimurium, 50 µg/mL in the test on Streptococcus mutans and over 200 µg/mL with Candida albicans.

Regarding `CC(C)C[C@H](NC(=O)[C@H](CC(C)C)NC(=O)[C@H](CCCNC(=N)N)NC(=O)[C@H](Cc1c[nH]cn1)NC(=O)[C@@H](NC(=O)[C@H](CCCNC(=N)N)NC(=O)CNC(=O)[C@@H](NC(=O)[C@@H]1CCCN1C(=O)[C@H](Cc1ccccc1)NC(=O)[C@@H](N)CCC(N)=O)C(C)C)C(C)C)C(=O)N[C@@H](CCCNC(=N)N)C(=O)N[C@@H](CCCCN)C(=O)O` [Seq No. 5], the “Minimal Inhibitory Concentrations” value was 18 µg/mL in the test with Bacillus subtilis; 18 µg/mL in the test on Serratia sp.; 62 µg/mL in the test with Cryptococcus neoformans; 62 µg/mL in the test on Saccharomyces cerevisiae; 18 µg/mL in the test with Streptococcus pneumoniae; 62 µg/mL with Staphylococcus aureus. Further, the “Minimal Inhibitory Concentrations” value with Escherichia coli stood at 36 µg/mL; with Salmonella typhimurium it was 18 µg/mL; in the test with Streptococcus mutans, 36 µg/mL; in the test on Candida albicans, 62 µg/mL.

Consider `CC(C)C[C@H](NC(=O)CN)C(=O)N[C@@H](CCC(N)=O)C(=O)N[C@@H](Cc1ccccc1)C(=O)N1CCC[C@H]1C(=O)N[C@H](C(=O)NCC(=O)N[C@@H](CCCNC(=N)N)C(=O)N[C@H](C(=O)N[C@@H](Cc1c[nH]cn1)C(=O)N[C@@H](CCCNC(=N)N)C(=O)N[C@@H](CC(C)C)C(=O)N[C@@H](CC(C)C)C(=O)N[C@@H](CCCNC(=N)N)C(=O)N[C@@H](CCCCN)C(N)=O)C(C)C)C(C)C` [Seq No. 3], for which the “Minimal Inhibitory Concentrations” value with Bacillus subtilis worked out at 4 µg/mL; with Serratia sp., 2 µg/mL; with Cryptococcus neoformans it was 8 µg/mL; in the test on Saccharomyces cerevisiae it was 8 µg/mL; in the test on Streptococcus pneumoniae, 4 µg/mL; with Staphylococcus aureus it was 8 µg/mL. Also, the “Minimal Inhibitory Concentrations” value stood at 2 µg/mL in the test on Escherichia coli, 4 µg/mL in the test on Salmonella typhimurium, 4 µg/mL with Streptococcus mutans and 8 µg/mL in the test on Candida albicans.

In the case of `CC(C)C[C@H](NC(=O)[C@H](CC(C)C)NC(=O)[C@H](CCCNC(=N)N)NC(=O)[C@H](Cc1c[nH]cn1)NC(=O)[C@@H](NC(=O)[C@H](CCCNC(=N)N)NC(=O)CNC(=O)[C@@H](NC(=O)[C@@H]1CCCN1C(=O)[C@@H](N)Cc1ccccc1)C(C)C)C(C)C)C(=O)N[C@@H](CCCNC(=N)N)C(=O)N[C@@H](CCCCN)C(N)=O` [Seq No. 6], the “Minimal Inhibitory Concentrations” value in the test with Bacillus subtilis is 32 µg/mL; in the test with Serratia sp., 16 µg/mL; in the test with Cryptococcus neoformans, over 100 µg/mL; with Saccharomyces cerevisiae, over 100 µg/mL; with Streptococcus pneumoniae, 32 µg/mL; in the test with Staphylococcus aureus, 32 µg/mL. The “Minimal Inhibitory Concentrations” value came out at 32 µg/mL in the test with Escherichia coli, 64 µg/mL in the test on Salmonella typhimurium, 32 µg/mL in the test with Streptococcus mutans and 32 µg/mL in the test on Candida albicans.

On to `CC(C)C[C@H](NC(=O)CNC(=O)[C@H](C)N)C(=O)N[C@@H](CCC(N)=O)C(=O)N[C@@H](Cc1ccccc1)C(=O)N1CCC[C@H]1C(=O)N[C@H](C(=O)NCC(=O)N[C@@H](CCCNC(=N)N)C(=O)N[C@H](C(=O)N[C@@H](Cc1c[nH]cn1)C(=O)N[C@@H](CCCNC(=N)N)C(=O)N[C@@H](CC(C)C)C(=O)N[C@@H](CC(C)C)C(=O)N[C@@H](CCCNC(=N)N)C(=O)N[C@@H](CCCCN)C(N)=O)C(C)C)C(C)C` [Seq No. 2], for which the “Minimal Inhibitory Concentrations” value in the test with Bacillus subtilis amounted to 4 µg/mL; in the test on Serratia sp., 2 µg/mL; in the test with Cryptococcus neoformans, 8 µg/mL; in the test with Saccharomyces cerevisiae, 8 µg/mL; in the test with Streptococcus pneumoniae, 4 µg/mL; in the test with Staphylococcus aureus, 8 µg/mL. In addition, the “Minimal Inhibitory Concentrations” value with Escherichia coli stood at 2 µg/mL; in the test on Salmonella typhimurium, 4 µg/mL; with Streptococcus mutans it was 4 µg/mL; in the test on Candida albicans it was 8 µg/mL.
